Assay results published in US20250122183A1 (Pfizer Inc., priority 2023, published 2025).

Protein sequences, listed by entry. Tags and fused reporters are not part of them. Chains listed by the source or under a name are the forms on record and can include a tag or linker. Residues count along the entry.
UniProt O95251, whole entry: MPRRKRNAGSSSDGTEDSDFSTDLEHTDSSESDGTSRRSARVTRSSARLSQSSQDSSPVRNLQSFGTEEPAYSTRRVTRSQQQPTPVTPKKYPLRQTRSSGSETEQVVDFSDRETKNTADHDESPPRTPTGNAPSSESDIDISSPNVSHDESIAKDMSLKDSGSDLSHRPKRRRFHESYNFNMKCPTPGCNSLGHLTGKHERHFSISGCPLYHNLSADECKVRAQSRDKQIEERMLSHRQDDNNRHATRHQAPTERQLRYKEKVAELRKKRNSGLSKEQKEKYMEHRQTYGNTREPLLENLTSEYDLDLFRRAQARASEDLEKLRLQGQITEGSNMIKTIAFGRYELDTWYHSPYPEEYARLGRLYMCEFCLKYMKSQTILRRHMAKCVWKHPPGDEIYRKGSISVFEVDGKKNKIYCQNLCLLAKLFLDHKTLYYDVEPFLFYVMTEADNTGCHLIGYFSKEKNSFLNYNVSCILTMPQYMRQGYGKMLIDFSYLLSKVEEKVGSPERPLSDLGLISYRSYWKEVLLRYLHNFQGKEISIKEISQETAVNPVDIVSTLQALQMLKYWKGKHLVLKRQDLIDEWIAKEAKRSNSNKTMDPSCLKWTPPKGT
UniProt Q92794, 1-2004 with tags or gaps limits assumed: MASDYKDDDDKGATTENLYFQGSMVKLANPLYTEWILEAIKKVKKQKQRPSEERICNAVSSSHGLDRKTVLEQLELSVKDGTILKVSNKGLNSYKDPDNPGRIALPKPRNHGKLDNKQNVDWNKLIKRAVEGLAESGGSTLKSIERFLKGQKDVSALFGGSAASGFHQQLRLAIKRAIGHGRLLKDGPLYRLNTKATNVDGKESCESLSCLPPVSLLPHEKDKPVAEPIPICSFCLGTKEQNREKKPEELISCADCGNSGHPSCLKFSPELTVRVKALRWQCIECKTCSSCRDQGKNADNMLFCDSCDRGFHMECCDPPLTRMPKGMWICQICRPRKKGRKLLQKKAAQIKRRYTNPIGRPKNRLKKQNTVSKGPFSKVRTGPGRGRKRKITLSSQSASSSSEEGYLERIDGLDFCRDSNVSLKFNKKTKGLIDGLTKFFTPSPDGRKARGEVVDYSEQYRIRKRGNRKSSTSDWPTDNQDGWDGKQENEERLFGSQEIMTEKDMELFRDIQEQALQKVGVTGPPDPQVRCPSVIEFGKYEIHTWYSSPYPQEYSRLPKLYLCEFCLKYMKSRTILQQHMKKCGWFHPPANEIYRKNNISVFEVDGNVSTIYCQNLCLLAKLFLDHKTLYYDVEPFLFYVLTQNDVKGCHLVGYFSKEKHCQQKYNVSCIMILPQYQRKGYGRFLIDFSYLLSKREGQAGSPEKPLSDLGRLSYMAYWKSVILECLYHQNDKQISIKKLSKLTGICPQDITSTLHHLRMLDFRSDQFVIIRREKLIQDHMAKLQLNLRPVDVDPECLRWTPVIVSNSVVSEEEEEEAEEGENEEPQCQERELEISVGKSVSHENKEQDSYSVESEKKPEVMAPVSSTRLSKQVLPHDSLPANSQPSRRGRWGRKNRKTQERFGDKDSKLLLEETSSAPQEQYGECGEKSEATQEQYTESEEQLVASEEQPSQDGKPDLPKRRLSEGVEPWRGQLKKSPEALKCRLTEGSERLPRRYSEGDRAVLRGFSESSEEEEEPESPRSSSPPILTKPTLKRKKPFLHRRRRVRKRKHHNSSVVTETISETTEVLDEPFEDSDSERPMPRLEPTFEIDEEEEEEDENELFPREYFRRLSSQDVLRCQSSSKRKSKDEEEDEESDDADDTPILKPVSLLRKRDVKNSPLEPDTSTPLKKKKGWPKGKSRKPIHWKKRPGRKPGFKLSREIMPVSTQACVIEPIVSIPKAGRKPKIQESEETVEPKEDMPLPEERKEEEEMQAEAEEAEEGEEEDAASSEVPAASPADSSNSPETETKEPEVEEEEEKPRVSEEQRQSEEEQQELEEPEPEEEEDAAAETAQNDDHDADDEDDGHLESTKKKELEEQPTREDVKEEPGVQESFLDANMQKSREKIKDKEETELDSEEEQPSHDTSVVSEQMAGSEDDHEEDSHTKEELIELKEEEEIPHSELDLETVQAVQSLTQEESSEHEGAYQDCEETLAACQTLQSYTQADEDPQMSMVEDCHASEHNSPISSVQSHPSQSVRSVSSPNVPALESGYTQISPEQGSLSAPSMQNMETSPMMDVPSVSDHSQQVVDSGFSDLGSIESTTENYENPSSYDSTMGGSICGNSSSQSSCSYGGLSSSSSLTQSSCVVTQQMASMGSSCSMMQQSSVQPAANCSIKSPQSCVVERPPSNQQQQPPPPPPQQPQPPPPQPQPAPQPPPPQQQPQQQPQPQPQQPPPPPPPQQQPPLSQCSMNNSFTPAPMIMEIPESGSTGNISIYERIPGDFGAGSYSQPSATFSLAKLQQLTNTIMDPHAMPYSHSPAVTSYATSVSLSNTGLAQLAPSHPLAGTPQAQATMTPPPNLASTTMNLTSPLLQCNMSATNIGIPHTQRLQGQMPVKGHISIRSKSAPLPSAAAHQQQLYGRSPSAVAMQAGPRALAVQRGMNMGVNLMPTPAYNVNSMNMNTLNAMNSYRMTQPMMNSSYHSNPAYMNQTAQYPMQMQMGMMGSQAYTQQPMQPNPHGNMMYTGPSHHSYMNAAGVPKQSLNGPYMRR

Legend:
[1] = biological target: KAT7+JADE1+EAF6+ING5 4 protein complex (Homo sapiens (Human), UniProt O95251); assay: KAT7 JADE1 assay (SAMDI-MS acetylation of H3 1-21 peptide); type: biochemical; conditions: read-out: KAT7 JADE1 Ki (nM) (replicate number); Morrison equation fit; replicate number in parentheses
KAT6A Full length enzyme = KAT6A Full length enzyme (Homo sapiens (Human), UniProt Q92794); assay: KAT6A assay (SAMDI-MS acetylation of H3 1-21 peptide); type: biochemical; conditions: read-out: KAT6A Ki (nM) (replicate number); Morrison equation fit; replicate number in parentheses

## [2H]C([2H])([2H])N1CCC(F)(F)C(c2cc(OC)c(S(=O)(=O)Nc3noc4cc(Nc5cc(C6CC6)n[nH]5)c(OC)cc34)c(OC)c2)C1 (single isomer, unassigned)
[1]
  Ki: 1.5 nM
KAT6A Full length enzyme
  Ki: 0.3 nM
